Results as given in publication PMC3169429 (ACS chemical biology, 2010).

How the values were obtained:
[1] = target: T1, bacteriophage T4 clamp loader, gp44/62 (Enterobacteria phage T4, UniProt P04526); experiment: ATPase inhibition assay, wild-type gp44/62; type: biochemical
T1 sequence (P04526 1-319): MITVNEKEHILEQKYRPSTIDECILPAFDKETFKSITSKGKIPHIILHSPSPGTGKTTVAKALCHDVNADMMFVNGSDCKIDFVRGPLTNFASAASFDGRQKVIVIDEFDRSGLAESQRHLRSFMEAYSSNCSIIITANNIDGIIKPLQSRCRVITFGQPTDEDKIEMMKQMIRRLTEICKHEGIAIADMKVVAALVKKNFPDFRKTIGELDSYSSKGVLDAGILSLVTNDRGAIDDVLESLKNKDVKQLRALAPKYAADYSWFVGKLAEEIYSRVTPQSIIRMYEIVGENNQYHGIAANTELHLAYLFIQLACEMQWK
T1 sequence (P04527 1-187 partner): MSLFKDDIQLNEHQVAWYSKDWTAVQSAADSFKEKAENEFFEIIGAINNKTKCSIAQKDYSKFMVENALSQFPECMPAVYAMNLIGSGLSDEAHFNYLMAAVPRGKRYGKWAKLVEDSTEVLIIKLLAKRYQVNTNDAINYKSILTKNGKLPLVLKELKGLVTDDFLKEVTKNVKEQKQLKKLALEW

R175K mutant of gp44/62 = R175K mutant of gp44/62 (Enterobacteria phage T4, UniProt P04526, R175K); experiment: ATPase inhibition assay, gp44/62 R175K mutant; type: biochemical, bacteriophage T4; details: arginine replaced with lysine
gp44/62 = target: T2, gp44/62 (Enterobacteria phage T4, UniProt P04526); experiment: Hydrolysis of nucleotide substrates by gp44/62; type: biochemical, bacteriophage T4; details: nucleotide substrates at 500 µM
T2 sequence (P04526 1-319): T1 sequence (P04526 1-319)
T2 sequence (P04527 1-187 partner): T1 sequence (P04527 1-187 partner)
Summary of the method: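 Wild-type T4 gp44/62 purified from an overproducing strain. Each ribo- or deoxy-nucleotide was supplied as substrate. Hydrolysis was read as Pi release by malachite green.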

In the case of `O=[N+]([O-])c1ccc2c(ccn2[C@H]2C[C@H](O)[C@@H](COP(=O)(O)OP(=O)(O)OP(=O)(O)O)O2)c1` [d5-NITP, 5-nitro-indolyl-2’-deoxyriboside triphosphate], the Sensitivity factor ([1]; [(Km/Ki)pathogen]/[(Km/Ki)host], against gp44/62) is reported as 20, the Hill coefficient ([1]; dose-dependent inhibition of gp44/62 ATPase activity) is reported as ~ 1 and the Mode of inhibition ([1]; double reciprocal plot versus ATP) is reported as “reversible, competitive inhibition”. For the same compound, the “Fold lower Ki than AMP-PNP” value ([1]; gp44/62) was ~ 300 fold, the “Fold lower Ki than ATPγS” value ([1]; gp44/62) was ~ 5 fold and the “Fold decrease of binding affinity, R175K versus wild-type” value (R175K mutant of gp44/62) was ~ 3 fold. For the same compound, the “Hydrolysis by gp44/62” value (gp44/62) was “not hydrolyzed by gp44/62”.
